Assay results: patent US20160199497A1, “Cholesterol Ester-Depleting Nanomedicine for Non-toxic Cancer Chemotherapy” (Purdue Research Foundation, priority 2014, published 2016)

System: cancer cells (PC3, MIA-PaCa2, A549, HCT116) and normal cells (hVSMC, BR5)
Assay: Cell viability of cancer and normal cells
Format: cell-based, human
Conditions: carrier control

HSA: human serum albumin, carrier protein of the formulation
contribution to the anti-cancer effect of avasimin: not caused by HSA
